Molecular target: Cytochrome P450 3A4 (Homo sapiens, UniProt P08684)
Assay: Inhibition of human CYP3A4 expressed in Escherichia coli assessed as inhibition of nifedipine oxidation
Format: ADME
How it was run: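 Bicistronic human CYP3A4 expressed in E. coli DH5; bacterial membrane fractions (sonication, differential centrifugation) stored at -75 °C, P450 content by CO-difference spectroscopy. Nifedipine substrate with 100 pmol P450 per incubation, 37 °C shaking waterbath; pyridine metabolite quantified by HPLC.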

Sequences of proteins named here, by UniProt entry; tags and fusion partners are left off.
UniProt P08684, whole entry: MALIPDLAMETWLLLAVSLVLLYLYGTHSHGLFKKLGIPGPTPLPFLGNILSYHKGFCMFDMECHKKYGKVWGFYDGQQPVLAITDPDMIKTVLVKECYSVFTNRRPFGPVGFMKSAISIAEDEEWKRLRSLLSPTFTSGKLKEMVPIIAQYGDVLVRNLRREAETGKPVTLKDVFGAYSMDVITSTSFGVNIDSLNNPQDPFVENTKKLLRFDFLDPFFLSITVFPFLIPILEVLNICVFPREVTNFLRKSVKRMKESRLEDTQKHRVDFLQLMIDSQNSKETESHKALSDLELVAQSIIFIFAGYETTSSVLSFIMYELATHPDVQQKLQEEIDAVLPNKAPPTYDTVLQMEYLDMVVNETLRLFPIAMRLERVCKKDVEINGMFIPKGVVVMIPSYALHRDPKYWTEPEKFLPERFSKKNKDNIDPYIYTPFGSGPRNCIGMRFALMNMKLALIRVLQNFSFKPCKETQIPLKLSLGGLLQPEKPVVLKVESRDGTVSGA

COc1cc2c(cc1O)CC[n+]1cc3c(OC)c(OC)ccc3cc1-2 [JATRORRHIZINE]
IC50: 2.1 µM
